One assay concerns A549 cells. The experiment in a line: Growth inhibition, relative cell proliferation with CCK-8, A549. Particulars: A549 (Her2 negative, Kras mutation), 72 hours. The format is cell-based. The method, then:
Briefly, cells were detached by using 0.25% (vol/vol) trypsin and suspended in complete medium. Aliquots of cells were plated into 96-well microdilution plates. […] After 72 hours, plates were washed twice with PBS (pH 7.5), and analyzed for relative cell proliferation with CCK-8 reagent.
After 72 hours, plates were washed twice with PBS (pH 7.5), and analyzed for relative cell proliferation with CCK-8 reagent.

Assay [1] deals with human NCI-N87 tumor xenografts. Nature of the assay: Human NCI-N87 tumor xenografts in BALB/c nude mice. The format is in vivo, mouse. For orientation: A xenograft is tissue or cells of one species grown in another, often human tumour cells in immunodeficient mice.
Assay [2] has as its system human BT474 tumor xenografts. The experiment in a line: Human BT474 tumor xenografts in BALB/c nude mice. The format is in vivo, mouse. The method, then:
Human BT474 cells (ATCC, HTB-20) were cultured in DMEM medium supplemented with 10% fetal bovine serum, 2 mM glutamine and antibiotics. Female BALB/c nude mice, 8-9 weeks old, were injected subcutaneously with 1×10^7 tumor cells in the dorsal area in a volume of 100 μL.

“Also recorded” adds a separate entry of the source.

“Bat0606: monoclonal antibody (trastuzumab) binding the extracellular domain of Her2”: the “inhibition of growth of A549 cells” value in the assay with A549 cells is listed as “Neither naked antibody Bat0606 nor drug conjugate Batansine-0606 inhibited the growth; also recorded: Neither naked antibody Bat0606 nor drug conjugate D-Lmcc-Bat0606 inhibited the growth; also recorded: did not inhibit A549 cells”.

For “Batansine-0606: conjugate of partially reduced antibody Bat0606 with batansine (3AA-MDC)”, the figures for the “inhibition of growth of A549 cells” value with A549 cells and in the assay with A549 cells (listed as Batanine-0606) were “Neither naked antibody Bat0606 nor drug conjugate Batansine-0606 inhibited the growth” and “did not inhibit A549”, respectively. In addition, the tumor shrinkage result in assay [1] (5 or 15 mg/kg i.v. once per week, 5 doses, from day 11) was “rapid tumor shrinkage”; in assay [2] (15 mg/kg i.v. every 3 weeks, 3 doses, from day 7), “Rapid tumor shrinkage”. Also, the “tumor size, palpability” value in assay [1] (5 or 15 mg/kg i.v., from day 32 onwards) is given as “shrunken to non-palpable”; in assay [2] (15 mg/kg i.v., from day 10 onwards), “shrunken to non-palpable”. Also, the “tumor growth as assessed by tumor weight” value in assay [1] (5 or 15 mg/kg, compared to the unconjugated Bat0606, 35 days after drug treatment) is on record as “more significantly inhibited the tumor growth”; in assay [2] (compared to the unconjugated Bat0606, 49 days after drug treatment), “more significantly inhibited the tumor growth”. The “eradication of tumor in mouse xenografts” value in assay [2] (FIG. 30) is “eradicated human BT474 tumor in mouse xenografts”.

For D-Lmcc-Bat0606, in the assay on A549 cells, the “inhibition of growth of A549 cells” value is recorded as “Neither naked antibody Bat0606 nor drug conjugate D-Lmcc-Bat0606 inhibited the growth; also recorded: did not inhibit A549 cells”.

The record behind these values is US8877706B2, “Maytansinoid derivatives” (Bio-Thera Solutions, Ltd., Co., priority 2012, dated 2014).
